What was measured:
[1] = biological target: T1, full-length B-Catenin (Uniprot ID P35222) (Homo sapiens, UniProt P35222); experiment: biochemical; type: binding; settings: beta-Catenin FP IC50 (nM), competition fluorescence polarization
T1 construct: 10 nM full-length B-Catenin (Uniprot ID P35222)

By UniProt entry, the sequences of proteins in these tests, tags left out.
UniProt P35222, whole entry: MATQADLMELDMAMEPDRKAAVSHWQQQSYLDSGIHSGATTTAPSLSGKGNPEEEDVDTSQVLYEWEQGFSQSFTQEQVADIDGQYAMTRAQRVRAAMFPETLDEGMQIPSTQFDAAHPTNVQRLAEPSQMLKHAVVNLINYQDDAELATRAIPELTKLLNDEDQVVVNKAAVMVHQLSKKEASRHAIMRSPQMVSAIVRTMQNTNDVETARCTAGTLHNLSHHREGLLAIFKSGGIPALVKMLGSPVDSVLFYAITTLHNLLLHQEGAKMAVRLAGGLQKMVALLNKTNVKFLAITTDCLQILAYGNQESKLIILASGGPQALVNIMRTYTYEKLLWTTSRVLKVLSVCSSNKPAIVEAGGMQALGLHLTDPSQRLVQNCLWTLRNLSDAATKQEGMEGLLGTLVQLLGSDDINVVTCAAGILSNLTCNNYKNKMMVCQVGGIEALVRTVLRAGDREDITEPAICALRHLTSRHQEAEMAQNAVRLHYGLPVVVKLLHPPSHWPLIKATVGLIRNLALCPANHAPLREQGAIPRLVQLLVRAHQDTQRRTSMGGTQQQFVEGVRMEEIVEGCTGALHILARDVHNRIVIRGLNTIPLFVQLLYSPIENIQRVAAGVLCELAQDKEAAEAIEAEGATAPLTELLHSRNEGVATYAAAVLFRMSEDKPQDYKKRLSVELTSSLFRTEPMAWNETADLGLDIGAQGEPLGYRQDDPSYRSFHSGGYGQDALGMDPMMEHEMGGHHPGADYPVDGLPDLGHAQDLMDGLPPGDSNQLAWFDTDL

[2] = biological target: beta-catenin/TCF4 interaction (Homo sapiens, UniProt P35222); experiment: cell-based; parameters: host or cells: HEK293; settings: NanoBRET Abs IC50 (uM)

SMILES	IC50 [1] [nM]	IC50 [2] [µM]
CC(=O)N1CCC[C@]12CC=CCCCC1(CCCC=CCCCOC(=O)N3CC[C@@]4(C3)NC(=O)[C@H](CCCCNC(=O)CC[C@@H](C(=O)N[C@@H](C)C(N)=O)NC(=O)[C@H](Cc3csc5ccccc35)NC(=O)[C@H](Cc3ccsc3)NC4=O)NC(=O)[C@H](Cc3ccccc3)NC(=O)[C@H](C)NC(=O)C(C)(C)NC(=O)[C@H](Cc3cccc(C(=O)O)c3)NC(=O)[C@H](CC(=O)O)NC1=O)NC(=O)[C@H](Cc1c(F)c(F)c(F)c(F)c1F)NC(=O)[C@H](CC(=O)O)NC2=O (relative stereo) [I-254, Ac-PL3-Asp-Pff-B5-Asp-3COOHF-Aib-Ala-Phe-Lys*3-PyrS2-3Thi-BztA-GlnR*3-Ala-NH2]	< 50	3 to 10
CCC(CC)[C@@H]1NC(=O)[C@H](CC(=O)O)NC(=O)[C@]2(CC=CCCCC3(CCCC=CCCCOC(=O)N4CC[C@@]5(C4)NC(=O)[C@H](CCCCNC(=O)CC[C@@H](C(=O)N[C@@H](C)C(N)=O)NC(=O)[C@H](Cc4csc6ccccc46)NC(=O)[C@H](Cc4ccsc4)NC5=O)NC(=O)[C@H](Cc4ccccc4)NC(=O)[C@H](C)NC(=O)C(C)(C)NC(=O)[C@H](Cc4cccc(C(=O)O)c4)NC(=O)[C@H](CC(=O)O)NC3=O)NC1=O)CCCN2C(C)=O (relative stereo) [I-255, Ac-PL3-Asp-DiethA-B5-Asp-3COOHF-Aib-Ala-Phe-Lys*3-PyrS2-3Thi-BztA-GlnR*3-Ala-NH2]	< 50	3 to 10
CC(=O)N1CCC[C@]12CC=CCCCC1(CCCC=CCCCOC(=O)N3CC[C@@]4(C3)NC(=O)[C@H](CC3CCN(CC3)C(=O)CC[C@@H](C(=O)N[C@@H](C)C(N)=O)NC(=O)[C@H](Cc3csc5ccccc35)NC(=O)[C@H](Cc3ccsc3)NC4=O)NC(=O)[C@H](Cc3ccccc3)NC(=O)[C@H](C)NC(=O)[C@H](C)NC(=O)[C@H](Cc3cccc(C(=O)O)c3)NC(=O)[C@H](CC(=O)O)NC1=O)NC(=O)[C@H](CC(C)(C)C)NC(=O)[C@H](CC(=O)O)NC2=O (relative stereo) [I-256, Ac-PL3-Asp-Npg-B5-Asp-3COOHF-Ala-Ala-Phe-4PipA*3-PyrS2-3Thi-BztA-GlnR*3-Ala-NH2]	< 50	3 to 10
CC(=O)N1CCC[C@]12CC=CCCCC1(CCCC=CCCCOC(=O)N3CC[C@@]4(C3)NC(=O)[C@H](CC3CCN(CC3)C(=O)CC[C@@H](C(=O)N[C@@H](C)C(N)=O)NC(=O)[C@H](Cc3csc5ccccc35)NC(=O)[C@H](Cc3ccccc3C(F)(F)F)NC4=O)NC(=O)[C@H](Cc3ccccc3)NC(=O)[C@H](C)NC(=O)[C@H](C)NC(=O)[C@H](Cc3cccc(C(=O)O)c3)NC(=O)[C@H](CC(=O)O)NC1=O)NC(=O)[C@H](CC(C)(C)C)NC(=O)[C@H](CC(=O)O)NC2=O (relative stereo) [I-257, Ac-PL3-Asp-Npg-B5-Asp-3COOHF-Ala-Ala-Phe-4PipA*3-PyrS2-2F3MeF-BztA-GlnR*3-Ala-NH2]	< 50	3 to 10
CC(=O)N1CCC[C@]12CC=CCCCC1(CCCC=CCCCOC(=O)N3CC[C@@]4(C3)NC(=O)[C@H](CCC(=O)N3CCC(CC3)C[C@@H](C(=O)N[C@@H](C)C(N)=O)NC(=O)[C@H](Cc3csc5ccccc35)NC(=O)[C@H](Cc3ccsc3)NC4=O)NC(=O)[C@H](Cc3ccccc3)NC(=O)[C@H](C)NC(=O)[C@H](C)NC(=O)[C@H](Cc3cccc(C(=O)O)c3)NC(=O)[C@H](CC(=O)O)NC1=O)NC(=O)[C@H](CC(C)(C)C)NC(=O)[C@H](CC(=O)O)NC2=O (relative stereo) [I-258, Ac-PL3-Asp-Npg-B5-Asp-3COOHF-Ala-Ala-Phe-GlnR*3-PyrS2-3Thi-BztA-4PipA*3-Ala-NH2]	< 50	3 to 10
